# Antibody variant affinities, Ab-14 light chain, assay B

Source: Li et al. 2023 (doi:10.1038/s41467-023-39022-2), MIT Lincoln Laboratory and A-Alpha Bio; data file from the FLAb repository.

The target is the same throughout: PDVDLGDISGINAS, from the HR2 region of SARS-CoV-2 spike.

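The parent was found by panning a naive human phage display library on the peptide. These sequences belong to a second round, designed from the earlier measurements on random variants of the parent. Group labels follow the data file (Ctrl: baseline library sampled from a position-specific scoring matrix, with some repeated check sequences; En: ensemble of fine-tuned language models; GP: Gaussian process model; HC: hill climbing; Gen: genetic algorithm; Gibbs: Gibbs sampling; a sequence that several methods proposed may carry one label only). Affinity was read by AlphaSeq, a pooled yeast mating assay with surface-displayed partners. Binding brings cells together so that they mate, and sequencing counts the barcode pairs among the diploids. The ratio of observed to expected reads was calibrated, replicate by replicate, on BCL2-family standards whose Kd was known from biolayer interferometry. Mating was done six times.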

Ab-14 is the parent antibody, in scFv form: VH, then a (GGGGS)3 linker, then VL. The heavy chain is unchanged in all variants.
VH: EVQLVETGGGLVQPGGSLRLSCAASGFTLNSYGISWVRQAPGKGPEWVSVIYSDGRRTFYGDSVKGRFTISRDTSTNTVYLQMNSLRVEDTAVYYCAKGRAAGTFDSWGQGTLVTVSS
VL: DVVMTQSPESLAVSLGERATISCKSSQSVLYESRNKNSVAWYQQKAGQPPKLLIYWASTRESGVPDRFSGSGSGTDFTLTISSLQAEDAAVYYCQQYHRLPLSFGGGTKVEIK

The parent's light chain CDRs are KSSQSVLYESRNKNSVA, WASTRES, QQYHRLPLS; each variant's own CDRs replace them letter for letter.
Scale: log10 of Kd in nM, estimated from mating counts; low values are strong binders.
A mean of the replicates is given; it leaves out those without a signal.
Where no diploid with the target was found in any replicate, the entry reads "nd": below detection, most likely a poor binder, though not proof of it.

Variant KSEQGVLYESRNKNSVA | GASLRES | QQYHRLPLS [GP_HC] gave 1.09 (6 of 6 replicates).
Variant KLSQSDLYESRNKNSVA | EASTRCS | QQYHRLPLS [GP_Gen] gave -0.14 (6 of 6 replicates).
Variant KSEQSVLYESRNKNSVA | HASTRED | QQYHRLPLS [GP_HC] gave 0.07 (6 of 6 replicates).
Variant MISQSFLTGMKAKNSVA | QTNTREE | QQYDRLPLI [En_HC] gave 0.59 (6 of 6 replicates).
Variant KLNQSTLYESRNQNSVA | WASTRES | QQYHRLPLS [GP_HC] gave 0.55 (6 of 6 replicates).
Variant KLVQLGDYESRNKNNVA | QASQREQ | QQYHRLPLS [GP_Gibbs] gave 0.15 (6 of 6 replicates).
Variant KAEGSWLYESRNKNSVA | NASMRES | QQYHRLPLS [GP_Gibbs] gave -0.63 (6 of 6 replicates).
Variant TLGDVTRMESNKKKSIA | DMSNRAD | QQYHRLPLS [En_HC] gave 0.85 (6 of 6 replicates).
Variant SFDLTKSGMENERYSIA | ERSVLMT | QDYHRLPLA [En_Gibbs] gave nd (0 of 6 replicates).
Variant KSSQGWLYESRNKNSVA | GASTRED | QQYHRLPLS [GP_HC] gave -0.37 (6 of 6 replicates).
Variant KLSYSVMLESRNKNAVA | NASTRMS | QDYHRLPLS [GP_Gibbs] gave -0.20 (6 of 6 replicates).
Variant KLSQFVGYESRNKSRVA | DNSTRES | QQYDRLPLS [En_HC] gave 3.54 (2 of 6 replicates).
Variant KKSQSVLYESCNKNSVA | MASTREM | QQYHRLPLS [Ctrl] gave 1.67 (5 of 6 replicates).
Variant KSAQSVLYESRNFNSVA | HASTRED | QQYHRLPLS [GP_HC] gave 0.33 (6 of 6 replicates).
Variant KANQSVLHESRNKNSVA | EASTTES | QQKNRLPLS [Ctrl] gave 1.15 (5 of 6 replicates).
Variant KFHMGHEAGQRKHDNVA | EANLRFS | QQYNRLPII [En_Gibbs] gave nd (0 of 6 replicates).
Variant HSSPSELYESRNKNNVA | NASTRES | QQYHRLPLS [GP_HC] gave -0.63 (6 of 6 replicates).
Variant KLYAMTMLESHDKNSIA | DLSTRGN | QQYHRLPLS [En_HC] gave 0.85 (6 of 6 replicates).
Variant HVSSMDMTDGGIKKSVA | GDKETER | QQYMRLPLS [En_Gibbs] gave 0.45 (6 of 6 replicates).
Variant KLQWSVLYQSRNKNSVA | QASTRMM | QQYHRLPLS [GP_Gibbs] gave 0.41 (6 of 6 replicates).
Variant KSSMSVLYESRNLNSVA | WASTRES | QNPHRLPLS [Ctrl] gave nd (0 of 6 replicates).
Variant MISQLYNMGQFAINSVA | QASQRNE | QQYDRLPLQ [En_Gen] gave 1.25 (6 of 6 replicates).
Variant KISQSVPYEDRNFNSVA | HASYRCS | QQYHRLPLS [GP_Gibbs] gave 1.17 (6 of 6 replicates).
Variant KSSQSILYESRNKNSVA | WASTRVS | QQYKRLPLS [Ctrl] gave 1.64 (6 of 6 replicates).
Variant HLSPSVLYESRNKNSVA | NASTRES | QQYHRLPLS [GP_HC] gave -0.12 (6 of 6 replicates).
Variant KSSQSVLYESDNKNSVA | EASTRDS | QQYHRLPLS [Ctrl] gave 0.52 (6 of 6 replicates).
Variant KSSDSVLYESRNKNSVA | GASTRES | QQYHRLPLS [GP_HC] gave 0.94 (6 of 6 replicates).
Variant KTSFSVMYESRRKNSVA | WASTRED | QQYHRLPLS [Ctrl] gave nd (0 of 6 replicates).
Variant KSSGSYLYESMNKNSVA | NASTRES | QQYHRLPLS [GP_HC] gave 0.97 (6 of 6 replicates).
Variant NISQMFMMETKNVNNVA | QTSTRES | QDYHRLPLS [En_HC] gave -0.25 (6 of 6 replicates).
Variant HINTLDVGVSDHYNSVA | EQRAAGI | QQYFRLPLS [En_Gibbs] gave 0.76 (6 of 6 replicates).
Variant KLSQSVMGGSRNKNSVA | NASQREQ | QQYHRLPLS [GP_Gibbs] gave -0.03 (6 of 6 replicates).
Variant KFGQSVLMGSYVRNSVA | QQSTREN | QQYDRLPLS [En_HC] gave 1.05 (6 of 6 replicates).
Variant TLTQVQGMESHNRDNVA | DLSTRGN | QQYDRLPLS [En_HC] gave 0.35 (6 of 6 replicates).
Variant KLSESAHFESRKKNNVA | ENSTRES | QQYYHLPLS [En_HC] gave nd (0 of 6 replicates).
Variant KSSDSVLYESRNKNSVA | NASTRES | QQYHRLPLS [Ctrl] gave 0.42 (6 of 6 replicates).
Variant KMWDYEYGTNAMNSSIA | NASLESD | QQYDRLPLA [En_Gibbs] gave nd (0 of 6 replicates).
Variant KSSWSVLYESGNKNSVA | DASTRES | QQYHRLPLS [GP_HC] gave 0.30 (6 of 6 replicates).
Variant SLRHYFLGENGMRGSVA | NATIRDQ | QQYFRLPLF [En_Gibbs] gave 0.48 (6 of 6 replicates).
Variant HFLSLSLHQTGTLNSVA | DAEERQE | QQYMRLPLM [En_Gibbs] gave -0.07 (6 of 6 replicates).
Variant HSSPSVEYESRNKNSVA | EASTRES | QQYHRLPLS [GP_HC] gave 0.12 (6 of 6 replicates).
Variant KLSWSELYESRNKNSVA | NASQRES | QQYHRLPLS [GP_Gen] gave -0.07 (6 of 6 replicates).
Variant RIQEQMQKPDNAGQNVA | ENQTVID | QQYAHLPLS [En_Gibbs] gave 2.61 (5 of 6 replicates).
Variant KLSQSVLYESRNKQSVA | NASTRES | QQYHRLPLS [GP_Gen] gave -0.47 (6 of 6 replicates).
Variant KSSQSQLYESRKKNSVA | WASTLES | QQYHRLPLS [Ctrl] gave nd (0 of 6 replicates).
Variant KLSQSWLYESRNKNSVA | HASTRCS | QQYHRLPLS [GP_Gen] gave 0.33 (6 of 6 replicates).
Variant KLSQSVLYEDRNKNNVA | NASTRES | QQYHRLPLS [GP_Gen] gave -0.58 (6 of 6 replicates).
Variant NLSDGDMYHNATRSAVA | NTTMRDF | QQYNRLPLD [En_Gibbs] gave 1.09 (6 of 6 replicates).
Variant KAMWSWLYWSRNQNSVA | NASQREH | QQYHRLPLS [GP_Gibbs] gave 0.16 (6 of 6 replicates).
Variant KISQSVMYESRNKNSVA | NASTRES | QQYHRLPLS [Ctrl] gave -0.33 (6 of 6 replicates).

The 4 strongest on average among those seen in every replicate, once more:

| CDR-L1 | CDR-L2 | CDR-L3 | group | mean log10 Kd (nM) | replicates with signal |
|---|---|---|---|---|---|
| KAEGSWLYESRNKNSVA | NASMRES | QQYHRLPLS | GP_Gibbs | -0.63 | 6 of 6 |
| HSSPSELYESRNKNNVA | NASTRES | QQYHRLPLS | GP_HC | -0.63 | 6 of 6 |
| KLSQSVLYEDRNKNNVA | NASTRES | QQYHRLPLS | GP_Gen | -0.58 | 6 of 6 |
| KLSQSVLYESRNKQSVA | NASTRES | QQYHRLPLS | GP_Gen | -0.47 | 6 of 6 |

The authors' rule: three or more of the six replicates give a measured affinity, fewer mean a poor binder.
Three control strains display no target. For all light chain designs, 4% of the pairings with them gave a signal, with a median of 2.64 and one signal in twenty below 1.59, so weak values seen in few replicates may be background.
A sequence measured in both rounds can read differently, since the two assays cover different ranges.
Of ten entries with the parent sequence, four were seen in most replicates (averages 0.34 to 2.37), three in one and three in none, so single entries are noisy.